From US8980845B2, “Biotechnological production of cyanophycin dipeptides” (Westfälische Wilhelms-Universität Münster, priority 2008, dated 2015)

Tests used:
[1] = test system: CGP degrading axenic cultures
[2] = test system: mammalian, avian and fish gut flora

For “multi-L-arginyl-poly-[L-aspartic acid] [CGP]”, the “CGP degradation Anoxic” value (Strain 38) was “±”, the “CGP degradation Oxic” value (Strain 38) was “+” and the “CGP degradation Anoxic” value (Strain 15) was “±”. The “CGP degradation Oxic” value (Strain 15) was “+”, the “CGP degradation Anoxic” value (Strain 47) was “±” and the “CGP degradation Oxic” value (Strain 47) was “+”. For the same substance, the “CGP degradation Anoxic” value (Strain 31) was “±”, the “CGP degradation Oxic” value (Strain 31) was “+” and the “Degradation products of CGP (HPLC)” value [1] was “constituting dipeptides”. For the same substance, the “Incubation periods required for the anaerobic CGP degradation by axenic cultures” value [1] was 24 to 170 h and the “CGP degradation in tubes inoculated with gut flora samples” value [2] was “complete CGP degradation”.
